The results in this text go back to patent publication US20250127698A1, “Hair Perming Compositions With Amine Derivatives” (ELC Management LLC, priority 2023, published 2025).

A short description of data set [1]: DSC keratin denaturation temperature change after straightening treatment. Particulars: Type 3 Caucasian hair after straightening; larger ΔT indicates more damage. On the set-up: species or system human. From the text: This damage occurs at the level of keratin proteins.
Untreated hair was used as a control.
A larger ΔT indicates more damage.

Data set [2] can be described thus: DSC keratin denaturation temperature change after curling treatment. To be noted: Type 1 Caucasian hair after curling treatment; larger ΔT indicates more damage.

As to `N.O` [Ammonium hydroxide, reference compound], the “ΔT (TUntreated−TAlkalizer, keratin denaturation temperature)” value in data set [1] amounted to 0.66 °C; in data set [2], 1.96 °C.
